The target of experiment [1] is T1, RAMP3-CLR (AM2 receptor) (Homo sapiens, UniProt O60896+Q16602).
T1 construct: FLAG; expressed in transfected cells; host or cells: HEK-293 or HEK-293S cells, transient transfection, 1:1 RAMP:CLR
The experiment can be described thus: S. cerevisiae growth assay, GPA1/Gαi chimera, RAMP3 + CLR. The experiment is classed as cell-based. As to the method:
(§1) FIGURE 3. […] Reporter gene activity was determined following 20 h of stimulation.
(§2) General yeast procedures were performed as described previously ([22], [24]). The human CLR was introduced into yeast cells under the control of the PGK promoter using a plasmid containing ura3 (pDT-PGK). The three human RAMPs were introduced into yeast under the control of the GAPDH promoter using plasmids containing leu2 (p425-GPD) ([25]). S. cerevisiae dual reporter strains expressing chimeras of yeast GPA1(1–467) (GPA1/Gα) with the five C-terminal amino acids of […] human G proteins representing Gαs, Gα16, Gαq, Gαo, Gαi1/2, Gαi3, Gαz, Gα12, Gα13, and Gα14 (MMY84–MMY93) were used in this study ([52]). […] Receptor signaling was measured using the yeast growth assay as described previously ([24]). […] A fluorescein signal was detected as an increase in fluorescence (excitation wavelength = 485 nm, emission wavelength = 535 nm) as a measure of growth. Different concentrations of ligand (0.01 nM–100 μM) were assayed using 96-well plates, and fluorescence was detected using a Tecan Infinite M200 microplate reader (Tecan Ultra Evolution, Reading, UK) or a Mithras LB 940 microplate reader (Berthold Technologies, Harpenden, UK) for 20 h. […]

The chains behind the UniProt entries cited, without tags or fusion partners. Residues count along the entry.
UniProt O60896, 24-148: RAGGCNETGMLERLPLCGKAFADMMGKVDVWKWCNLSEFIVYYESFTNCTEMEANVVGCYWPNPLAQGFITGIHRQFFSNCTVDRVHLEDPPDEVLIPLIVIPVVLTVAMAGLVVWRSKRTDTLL
UniProt Q16602, 23-461: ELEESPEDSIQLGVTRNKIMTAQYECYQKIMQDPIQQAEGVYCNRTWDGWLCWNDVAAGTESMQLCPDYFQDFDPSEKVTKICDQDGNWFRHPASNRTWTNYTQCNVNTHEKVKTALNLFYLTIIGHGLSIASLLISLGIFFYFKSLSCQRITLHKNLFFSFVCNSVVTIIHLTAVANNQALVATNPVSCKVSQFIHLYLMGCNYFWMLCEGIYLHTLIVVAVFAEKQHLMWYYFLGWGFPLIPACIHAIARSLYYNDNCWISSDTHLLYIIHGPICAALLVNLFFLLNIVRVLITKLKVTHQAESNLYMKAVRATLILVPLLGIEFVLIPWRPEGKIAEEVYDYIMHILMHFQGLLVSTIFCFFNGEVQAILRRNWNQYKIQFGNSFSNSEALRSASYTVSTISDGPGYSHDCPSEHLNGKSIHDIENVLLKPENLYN
UniProt O60895, 43-175: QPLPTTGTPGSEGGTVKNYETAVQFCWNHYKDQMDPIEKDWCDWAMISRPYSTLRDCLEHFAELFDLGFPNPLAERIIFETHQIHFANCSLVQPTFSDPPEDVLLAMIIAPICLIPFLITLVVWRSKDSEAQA

The target in experiment [2] is T2, RAMP2-CLR (AM1 receptor) (Homo sapiens, UniProt O60895+Q16602).
T2 construct: FLAG; expressed in transfected cells; host or cells: HEK-293 or HEK-293S cells, transient transfection, 1:1 RAMP:CLR
Put plainly: S. cerevisiae growth assay, GPA1/Gαi chimera, RAMP2 + CLR. The experiment is classed as cell-based. As to the method:
as §1, §2

The values that follow come from publication PMC5063977 (The Journal of Biological Chemistry, 2016).

pEC50, pKd: −log10 of the molar value.

A word on the pEC50: it is −log10 of the EC50, conventionally taken in molar units. Broadly, the pKd is the negative decadic logarithm of the Kd, by convention in mol/L. Consider `CSCC[C@H](NC(=O)[C@H](CC(C)C)NC(=O)[C@H](CCC(N)=O)NC(=O)[C@H](Cc1c[nH]c2ccccc12)NC(=O)[C@H](CC(C)C)NC(=O)[C@H](CCCNC(=N)N)NC(=O)[C@H](Cc1c[nH]cn1)NC(=O)[C@H](CO)NC(=O)[C@H](CC(C)C)NC(=O)[C@H](CC(N)=O)NC(=O)[C@H](CCC(N)=O)NC(=O)[C@@H](NC(=O)[C@H](CCC(N)=O)NC(=O)[C@@H]1CSSC[C@H](NC(=O)CNC(=O)[C@@H](NC(=O)[C@H](CCCNC(=N)N)NC(=O)[C@H](CC(C)C)NC(=O)[C@H](CC(C)C)NC(=O)[C@H](CCC(N)=O)NC(=O)[C@H](C)NC(=O)[C@H](CCC(N)=O)NC(=O)[C@@H](N)[C@@H](C)O)C(C)C)C(=O)N[C@@H](C(C)C)C(=O)N[C@@H](CC(C)C)C(=O)NCC(=O)N[C@@H]([C@@H](C)O)C(=O)N1)C(C)C)C(=O)NCC(=O)N1CCC[C@H]1C(=O)N[C@@H](C)C(=O)NCC(=O)N[C@@H](CCCNC(=N)N)C(=O)N[C@@H](CCC(N)=O)C(=O)N[C@@H](CC(=O)O)C(=O)N[C@@H](CO)C(=O)N[C@@H](C)C(=O)N1CCC[C@H]1C(=O)N[C@H](C(=O)N[C@@H](CC(=O)O)C(=O)N1CCC[C@H]1C(=O)N[C@@H](CO)C(=O)N[C@@H](CO)C(=O)N1CCC[C@H]1C(=O)N[C@@H](Cc1c[nH]cn1)C(=O)N[C@@H](CO)C(=O)N[C@@H](Cc1ccc(O)cc1)C(N)=O)C(C)C` [AM2, adrenomedullin 2], for which the pEC50 in experiment [1] was 8.49; in experiment [2], 8.42. Also, the pKd in experiment [1] and in experiment [2] was 8.30 throughout.
